The values that follow come from ChEMBL document CHEMBL1135708, “Synthesis of 1-(3,4-dihydroxy-5-nitrophenyl)-2-phenyl-ethanone and derivatives as potent and long-acting peripheral inhibitors of catechol-O-methyltransferase” (J Med Chem, 2002).

In the assay the target is T1, Catechol O-methyltransferase (Rattus norvegicus, UniProt P22734).
T1 sequence (P22734 whole entry): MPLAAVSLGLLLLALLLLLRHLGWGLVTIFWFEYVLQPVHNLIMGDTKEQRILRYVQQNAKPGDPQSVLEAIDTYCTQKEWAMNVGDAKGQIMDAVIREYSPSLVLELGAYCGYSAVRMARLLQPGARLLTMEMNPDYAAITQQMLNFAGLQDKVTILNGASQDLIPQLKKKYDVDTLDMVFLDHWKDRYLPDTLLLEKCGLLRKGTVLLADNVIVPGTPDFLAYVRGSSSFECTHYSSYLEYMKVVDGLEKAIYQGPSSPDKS

Usually IC50 stands for the concentration that gives 50% inhibition. A high value points to weaker potency in that assay. Turning to `O=C(Cc1ccccc1)c1cc(O)c(O)c([N+](=O)[O-])c1` [NEBICAPONE], the midpoint of inhibition, the IC50, lay at 696 µM.
